Tests used:
[1] = target: Kappa-type opioid receptor (Mus musculus) (UniProt P33534); assay: Positive allosteric modulator activity in mouse kappa opioid receptor stably expressed in HEK293 cell membrane assessed as inhibition of forskolin induced cAMP production by measuring U50,488 Emax incubated with U50,488 alone measured after 30 mins by HTRF assay relative to control; conditions: filed as positive allosteric modulator
[2] = target: Kappa-type opioid receptor (Mus musculus) (UniProt P33534); assay: Positive allosteric modulator activity in mouse kappa opioid receptor stably expressed in HEK293 cell membrane assessed as beta-arrestin recruitment by measuring U50,488 Emax using furimazine as a substrate pretreated for 5 mins followed by incubation with U50,488 measured for 35 mins by BRET assay …; conditions: filed as positive allosteric modulator, time 40.0 min

Amino acid sequences for entries named in this document (tags omitted). A change or cut given only in a name is not applied to a line headed by its entry.
UniProt P33534: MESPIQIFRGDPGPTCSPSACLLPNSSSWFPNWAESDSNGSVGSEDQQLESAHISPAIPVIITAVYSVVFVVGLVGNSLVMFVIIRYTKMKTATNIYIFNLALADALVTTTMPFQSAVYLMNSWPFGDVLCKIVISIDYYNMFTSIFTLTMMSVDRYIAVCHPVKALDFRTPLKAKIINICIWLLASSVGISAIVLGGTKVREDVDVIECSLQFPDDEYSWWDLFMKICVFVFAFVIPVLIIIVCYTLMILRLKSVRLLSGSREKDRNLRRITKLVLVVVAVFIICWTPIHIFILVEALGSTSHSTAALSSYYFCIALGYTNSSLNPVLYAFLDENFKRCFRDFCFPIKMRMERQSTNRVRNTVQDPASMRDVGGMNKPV

## CN(C(=O)Cc1ccc(Cl)c(Cl)c1)C1CCCCC1N1CCCC1 (configuration not stated)
[1]
  Emax: 100%
[2]
  Emax: 100%

From ChEMBL document CHEMBL4831505, “Plant-Derived Cyclotides Modulate κ-Opioid Receptor Signaling” (J Nat Prod, 2021)
